How the values were obtained:
[1] = Apparent distribution coefficient (Log P), shake-flask method; type: physicochemical; details: n-octanol/distilled water, 48 h, 32 °C
Protocol: The classic shake-flask method was used to determine the apparent distribution coefficient (Log P). DCN and its ion-pair complexes were added into n-octanol, then mixed with equal volume distilled water. The samples were shaken for 48 h at 32 °C and centrifuged at 10,000 rpm for 10 min. After phase separation, the concentrations of each drug in both water and n-octanol layer were analyzed by HPLC.
(§1) The samples were determined by an LC-20A HPLC system (SHIMADZU, Kyoto, Japan). The separation was achieved on an InertSustain C18 column (4.6 mm × 250 mm, 5 µm, SHIMADZU, Kyoto, Japan) with the flow rate keeping at 1.0 mL/min, the column temperature maintaining at 40 °C and mobile phase consisting of methanol:water (25:75, v/v) with 0.4% phosphoric acid in water. Injection volume for each run was 50 μL, and detection wavelength was 254 nm.

[2] = Equilibrium solubility experiments; type: physicochemical; details: 48 h; for Equilibrium solubility PBS (pH 7.4): PBS pH 7.4, 32 °C; for Equilibrium solubility IPM: isopropyl myristate; for Equilibrium solubility IPM / Equilibrium solubility Water: 32 °C
Protocol: The obtained complexes were vibrated by ultrasonic for 10 min then continuously shaken in a water bath at 32 °C until equilibrium.
as §1

SMILES | Log P [1] | Equilibrium solubility PBS (pH 7.4) [2] [μg/mL] | Equilibrium solubility IPM [2] [mg/mL] | Equilibrium solubility Water [2] [mg/mL]
CC(=O)Oc1cccc2c1C(=O)c1c(OC(C)=O)cc(C(=O)O)cc1C2=O [DCN, Diacerein] | 1.50 ± 0.01 | – | – | –
CC(=O)Oc1cccc2c1C(=O)c1c(OC(C)=O)cc(C(=O)O)cc1C2=O.CCNCC [DCN-Dea] | –0.32 ± 0.007 | 18473.86 ± 91.09 | 0.41037 ± 0.02056 | 5.45336 ± 0.02784
CC(=O)Oc1cccc2c1C(=O)c1c(OC(C)=O)cc(C(=O)O)cc1C2=O.OCCNCCO [DCN-Deta] | –0.22 ± 0.006 | 11105.50 ± 18.51 | 0.11589 ± 0.0166 | 3.9983 ± 0.0125
CC(=O)Oc1cccc2c1C(=O)c1c(OC(C)=O)cc(C(=O)O)cc1C2=O.CCN(CC)CC [DCN-Tea] | –0.27 ± 0.006 | – | – | –
CC(=O)Oc1cccc2c1C(=O)c1c(OC(C)=O)cc(C(=O)O)cc1C2=O.OCCN(CCO)CCO [DCN-Teta] | –0.13 ± 0.005 | 2514.24 ± 10.27 | 0.09938 ± 0.0128 | 6.37494 ± 0.0146
CC(=O)Oc1cccc2c1C(=O)c1c(OC(C)=O)cc(C(=O)O)cc1C2=O.NCCO [DCN-eta] | –0.25 ± 0.005 | – | – | –

From paper PMC8843160, “Ion-pair compounds of diacerein for enhancing skin permeability in vitro: the compatibility–permeability relationship of counter ion and diacerein” (Drug Delivery, 2022)
